According to ChEMBL document CHEMBL1141574, “A comparison of chloroambucil- and xylene-containing polyamines leads to improved ligands for accessing the polyamine transport system” (J Med Chem, 2008):

Experiments:
[1] = Inhibition of [3H]spermidine uptake at PAT in mouse L1210 cells; assay type: cell-based
L1210 [2] = test: Cytotoxicity against mouse L1210 cells after 24 hrs in presence of spermidine; assay type: functional, cell-based
CHO-MG = test: Cytotoxicity against PAT deficient CHO-MG cells after 48 hrs; assay type: cell-based, Cricetulus griseus
Summary of the method: (§1)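 CHO and CHO-MG grown in RPMI with 10% FCS, glutamine, penicillin/streptomycin and 2 mM aminoguanidine; CHO-MG medium also has L-proline (2 µg/mL); 37 °C, 5% CO2. Cells plated at 1 × 10⁴ cells/mL and drug added after overnight incubation. After 48 h exposure, growth read as MTT formazan absorbance at 540 nm. IC50 is the concentration giving 50% reduction in relative growth; ratio is CHO-MG IC50 over CHO IC50.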

L1210 [3] = test: Cytotoxicity against mouse L1210 cells after 48 hrs; assay type: functional, cell-based
Summary of the method: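 L1210 cells in early to mid log phase, viability checked by trypan blue, grown in RPMI with 10% FCS, glutamine, antibiotics and 2 mM aminoguanidine at 37 °C, 5% CO2. Seeded at 6 × 10⁴ cells/mL with drug added at seeding. After 48 h exposure, growth read as MTT formazan at 540 nm. IC50 is the concentration reducing relative growth by 50%.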

CHO = test: Cytotoxicity against PAT active CHO cells after 48 hrs; assay type: cell-based, Cricetulus griseus; summary of the method: as §1
[4] = Ratio of IC50 for PAT deficient CHO-MG cells to IC50 for PAT active CHO cells; assay type: cell-based, Cricetulus griseus; details: chinese hamster; summary of the method: as §1

Row | Compound | Ki [1] [µM] | IC50 (L1210 [2]) [µM] | IC50 (CHO-MG) [µM] | IC50 (L1210 [3]) [µM] | IC50 (CHO) [µM] | Ratio IC50 [4]
1 | NCCCCNCc1ccc(N(CCCl)CCCl)cc1 | 75 | 2.59 | 17.1 | 2.18 | 28.5 | 
2 | Cl.Cl.Cl.Cl.NCCCCNCc1ccc(N(CCCl)CCCl)cc1 |  |  |  |  |  | 0.6
